The nature of the data set: Peptide reactivity with cysteine (N-acetyl cysteine methyl ester), LC/MS. The settings on record: 1 mM N-acetyl cysteine methyl ester, within 2.5 h, room temperature, HEPES 25 mM pH 7.5, 100 mM NaCl, 10 mM MgCl2.

The values that follow come from article PMC10692228, “A simple method for developing lysine targeted covalent protein reagents” (Nature Communications, 2023).

A value given as a limit tells only on which side of the number the result lay.

Take Ac-RAH-(pT)-(mC)-PASLQ-NH2 [Peptide 8]: the “peptide reacted with cysteine” value is reported as more than 50%.
